## Ab-14 light chain CDR variants: yeast mating affinities

Values reported by Li et al. 2023, doi:10.1038/s41467-023-39022-2 (FLAb copy).

The target is the same throughout: PDVDLGDISGINAS, from the HR2 region of SARS-CoV-2 spike.

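Phage display of a naive human antibody library on the peptide gave the parent. These sequences belong to a second round, designed from the earlier measurements on random variants of the parent. Group labels follow the data file (Ctrl: baseline library sampled from a position-specific scoring matrix, with some repeated check sequences; GP: Gaussian process model; HC: hill climbing; Gen: genetic algorithm; Gibbs: Gibbs sampling; a sequence that several methods proposed may carry one label only). In AlphaSeq, yeast of one mating type display the scFv and yeast of the other type display the target. Pairs that bind mate more often; barcode pairs of the diploids are counted by sequencing. Each replicate has its own calibration line, from reference interactions of the BCL2 family. There are six technical replicates.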

Each scFv is VH, a 15-residue (Gly4Ser)3 linker, VL, as in the parent Ab-14, and differs from it in the CDRs of the light chain only.
VH: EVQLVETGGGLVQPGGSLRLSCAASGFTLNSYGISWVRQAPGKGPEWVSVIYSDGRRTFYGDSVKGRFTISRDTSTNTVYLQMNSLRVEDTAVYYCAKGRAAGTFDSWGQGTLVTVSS
VL: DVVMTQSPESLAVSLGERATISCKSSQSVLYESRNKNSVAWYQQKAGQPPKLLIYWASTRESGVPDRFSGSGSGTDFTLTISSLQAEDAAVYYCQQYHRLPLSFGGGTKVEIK

Substitutions are numbered in sequence along the VL above, starting at 1 (not Kabat). This list holds designs with at most six substitutions. The read-out is the apparent dissociation constant on a log10 scale (nM): the lower, the stronger. Replicates are averaged; those with no signal do not enter the mean. "no signal" marks a missing value. The strain was present, yet no cells mated with the target were sequenced in any replicate, which points to weak or no binding.

* S25L V29Q W56N T59Q Q96D [GP_Gen] = 0.00 (6 of 6 replicates; controls 0 of 18)
* S25L W56G Q96C [GP_Gen] = 0.21 (6 of 6 replicates; controls 1 of 18)
* S25V W56H T59Q [GP_Gen] = 0.11 (6 of 6 replicates; controls 1 of 18)
* S25M V29E N37K W56A L102N [Ctrl] = 1.80 (5 of 6 replicates; controls 0 of 18)
* S25Q S28E V29K Y31G W56D [GP_HC] = -0.09 (6 of 6 replicates; controls 1 of 18)
* S26Q V29W W56G T59F [GP_HC] = 0.52 (6 of 6 replicates; controls 0 of 18)
* R34N [Ctrl] = 1.59 (6 of 6 replicates; controls 0 of 18)
* S25L S26P L30P W56N E61M [GP_Gen] = 1.10 (6 of 6 replicates; controls 0 of 18)
* S25F W56E T59Q [GP_Gen] = -0.15 (6 of 6 replicates; controls 0 of 18)
* V29L [Ctrl] = 1.37 (6 of 6 replicates; controls 1 of 18)
* S25L S26E V29E W56N T59Q S62Q [GP_Gen] = 0.91 (6 of 6 replicates; controls 0 of 18)
* S25M V29E W56N E61L [GP_Gen] = 0.06 (6 of 6 replicates; controls 0 of 18)
* S25L W56N S62M S103M [GP_Gen] = -0.16 (6 of 6 replicates; controls 1 of 18)
* S25L W56N A57G S62Q [GP_Gen] = -0.31 (6 of 6 replicates; controls 1 of 18)
* S25V S26Q V29W W56N [GP_Gen] = -0.25 (6 of 6 replicates; controls 1 of 18)
* K24A Q27N S62K L102S [Ctrl] = 1.93 (4 of 6 replicates; controls 0 of 18)
* S25M V29Q S33T W56N A57M [GP_Gibbs] = 0.02 (6 of 6 replicates; controls 2 of 18)
* K24R V29K Y31W E32Q N37F L102F [Ctrl] = no signal (0 of 6 replicates; controls 0 of 18)
* S38A W56A Q95S [Ctrl] = 1.16 (6 of 6 replicates; controls 2 of 18)
* Q27I V29Y R34P W56E S62Q [GP_HC] = 0.60 (6 of 6 replicates; controls 2 of 18)
* S25W V29N W56N S62V L100H [Ctrl] = 2.79 (1 of 6 replicates; controls 1 of 18)
* S25I H98A [Ctrl] = 0.71 (6 of 6 replicates; controls 1 of 18)
* S25Q S28M L30P Y31F W56D [GP_HC] = 0.14 (6 of 6 replicates; controls 1 of 18)
* S25L S26E Y31V W56N [GP_Gen] = -0.19 (6 of 6 replicates; controls 2 of 18)
* Y31F R34D S58F [Ctrl] = no signal (0 of 6 replicates; controls 1 of 18)
* S25M V29M N35A K36F W56N T59Q [GP_Gibbs] = 0.31 (6 of 6 replicates; controls 2 of 18)
* S25L S26M V29Q L30E W56E S62L [GP_Gibbs] = -0.01 (6 of 6 replicates; controls 2 of 18)
* S25L Q27P L30E W56N [GP_HC] = -0.36 (6 of 6 replicates; controls 0 of 18)
* Q27I V29K R34M W56E [GP_HC] = 0.10 (6 of 6 replicates; controls 1 of 18)
* Q27I V29Y R34E N37H W56E T59Q [GP_HC] = 0.33 (6 of 6 replicates; controls 1 of 18)
* S26G K36P W56Q [Ctrl] = 0.37 (6 of 6 replicates; controls 1 of 18)
* S25V V29Q W56N E61L [GP_Gen] = -0.08 (6 of 6 replicates; controls 1 of 18)
* Q27D V29N L30T N37A W56S T59M [Ctrl] = 0.56 (6 of 6 replicates; controls 1 of 18)
* V29G [Ctrl] = 1.63 (1 of 6 replicates; controls 0 of 18)
* S25V S33R S58R T59N L100I [Ctrl] = no signal (0 of 6 replicates; controls 1 of 18)
* S28D V29C N37W T59E [Ctrl] = 0.45 (6 of 6 replicates; controls 3 of 18)
* Y31T E32T R34E K36C [Ctrl] = 1.78 (6 of 6 replicates; controls 1 of 18)
* S25L S26P L30P W56N T59Q [GP_Gen] = -0.24 (6 of 6 replicates; controls 1 of 18)
* Q27K V29F S58A [Ctrl] = no signal (0 of 6 replicates; controls 1 of 18)
* Q27H Q96A [Ctrl] = no signal (0 of 6 replicates; controls 0 of 18)
* S25L S26E V29Q W56N T59Q [GP_Gen] = -0.19 (6 of 6 replicates; controls 2 of 18)
* S25D Y31F E32Q W56D [GP_HC] = 0.54 (6 of 6 replicates; controls 2 of 18)
* S25F Q96D [Ctrl] = 1.89 (3 of 6 replicates; controls 0 of 18)
* S25L Y31F W56D T59F [GP_HC] = -0.26 (6 of 6 replicates; controls 0 of 18)
* K24H Q27P V29S W56N [GP_HC] = -0.39 (6 of 6 replicates; controls 0 of 18)
* V29D K36V W56G [GP_HC] = -0.08 (6 of 6 replicates; controls 2 of 18)
* S26G Q96A [Ctrl] = no signal (0 of 6 replicates; controls 0 of 18)
* S25V S26E V29W S38A W56N [GP_Gen] = -0.62 (6 of 6 replicates; controls 1 of 18)

For reference, 7 entries of the list once more:

| changes | group | mean, log10 nM | detected | empty controls |
|---|---|---|---|---|
| S25L W56N S62M S103M | GP_Gen | -0.16 | 6 of 6 | 1 of 18 |
| S25L S26P L30P W56N T59Q | GP_Gen | -0.24 | 6 of 6 | 1 of 18 |
| S25W V29N W56N S62V L100H | Ctrl | 2.79 | 1 of 6 | 1 of 18 |
| S25L Y31F W56D T59F | GP_HC | -0.26 | 6 of 6 | 0 of 18 |
| S25V S33R S58R T59N L100I | Ctrl | no signal | 0 of 6 | 1 of 18 |
| S25V W56H T59Q | GP_Gen | 0.11 | 6 of 6 | 1 of 18 |
| Q27I V29Y R34P W56E S62Q | GP_HC | 0.60 | 6 of 6 | 2 of 18 |

A sequence measured in both rounds can read differently, since the two assays cover different ranges. The authors averaged sequences with at least three values out of six and counted those with two or fewer as poor binders. As a blank, each scFv also met three strains without target: over all light chain designs, 4% of these pairings were detected, typically at 2.64 and seldom below 1.59. For each scFv, signals with the empty controls are counted beside the result.